# Test results as given in ChEMBL document CHEMBL1821671, “Synthesis and in vitro evaluation of new analogues as inhibitors for phosphodiesterase 10A” (Eur J Med Chem, 2011).
# Legend:
# [1] = molecular target: cAMP and cAMP-inhibited cGMP 3',5'-cyclic phosphodiesterase 10A (Homo sapiens, UniProt Q9Y233); experiment: Inhibition of human recombinant PDE10A assessed as reduction in hydrolysis of [3H]cAMP by scintillation proximity assay
# In short: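 Recombinant human PDE10A, fixed amount, in [³H]cAMP scintillation proximity assay; substrate at 1/3 Km with varied inhibitor concentrations. Reaction started by enzyme addition, incubated to ~30% substrate turnover, stopped with yttrium silicate SPA beads, counted after settling. Signal expressed as % of uninhibited control versus concentration to fit IC50; each compound assayed at least twice.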
# [2] = molecular target: T1, cAMP and cAMP-inhibited cGMP 3',5'-cyclic phosphodiesterase 10A (Rattus norvegicus, UniProt Q9QYJ6); experiment: Inhibition of rat PDE10A
# T1 sequence (Q9QYJ6 whole entry): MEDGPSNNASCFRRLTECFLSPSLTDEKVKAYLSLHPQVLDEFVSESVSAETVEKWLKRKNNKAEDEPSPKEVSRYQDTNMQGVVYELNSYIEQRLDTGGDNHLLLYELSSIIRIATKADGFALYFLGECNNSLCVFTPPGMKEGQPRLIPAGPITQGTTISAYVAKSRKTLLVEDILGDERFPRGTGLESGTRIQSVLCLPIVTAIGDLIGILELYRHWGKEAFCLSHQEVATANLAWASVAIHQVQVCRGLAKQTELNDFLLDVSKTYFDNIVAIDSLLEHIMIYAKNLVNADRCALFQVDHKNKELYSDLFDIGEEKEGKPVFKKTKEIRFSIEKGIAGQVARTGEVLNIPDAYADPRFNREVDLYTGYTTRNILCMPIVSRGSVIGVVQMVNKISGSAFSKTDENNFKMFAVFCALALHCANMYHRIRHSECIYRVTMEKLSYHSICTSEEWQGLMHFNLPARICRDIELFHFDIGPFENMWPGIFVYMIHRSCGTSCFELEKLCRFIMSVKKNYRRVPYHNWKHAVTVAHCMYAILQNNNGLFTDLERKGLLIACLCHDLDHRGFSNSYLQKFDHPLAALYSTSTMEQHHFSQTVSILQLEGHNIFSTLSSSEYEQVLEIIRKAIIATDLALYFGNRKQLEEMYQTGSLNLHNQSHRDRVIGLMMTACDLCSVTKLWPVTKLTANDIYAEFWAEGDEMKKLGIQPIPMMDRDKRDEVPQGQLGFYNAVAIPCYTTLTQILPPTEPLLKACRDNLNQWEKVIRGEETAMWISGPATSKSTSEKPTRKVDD
smiles,measurement,setting,value
COc1ccc(Cc2nccc3cc(OC)c(OC)cc23)cc1OC [PAPAVERINE],IC50,[1],21 nM
same,IC50,[2],36 nM
